Values joined by “and” are separate entries in the source; they are usually repeats but may differ in a detail not shown here. Equal entries are not always repeated. Where two headings read alike, the source gives them in different places.
Experiments:
[1] = molecular target: C. elegans (N2) complex I (NADH:ubiquinone oxidoreductase) (Caenorhabditis elegans, UniProt P24887+Q93873+Q94360); experiment: biochemical; type: biochemical; conditions: wild-type C. elegans, single replicate
[2] = molecular target: B. taurus (heart) complex I (Bos taurus, UniProt P03887+P17694+P42026); type: biochemical; conditions: heart mitochondria
C. briggsae complex I = molecular target: T1, C. briggsae complex I (Caenorhabditis briggsae, UniProt A8X476+A8XFG2+Q8HEC4); experiment: In vitro complex I activity assay, C. briggsae mitochondria; type: biochemical; conditions: single replicate
T1 sequence (A8X476 31-482): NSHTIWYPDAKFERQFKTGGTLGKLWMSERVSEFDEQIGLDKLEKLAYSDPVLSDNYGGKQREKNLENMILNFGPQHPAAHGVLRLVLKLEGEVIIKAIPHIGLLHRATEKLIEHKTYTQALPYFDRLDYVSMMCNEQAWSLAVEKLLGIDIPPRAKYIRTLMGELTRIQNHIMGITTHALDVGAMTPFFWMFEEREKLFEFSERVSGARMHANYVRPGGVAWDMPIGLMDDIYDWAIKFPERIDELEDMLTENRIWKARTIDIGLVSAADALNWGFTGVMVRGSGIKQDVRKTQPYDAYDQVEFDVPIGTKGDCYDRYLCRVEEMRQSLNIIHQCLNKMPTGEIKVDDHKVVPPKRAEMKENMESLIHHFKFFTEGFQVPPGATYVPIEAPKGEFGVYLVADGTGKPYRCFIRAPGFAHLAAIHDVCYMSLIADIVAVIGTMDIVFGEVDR
T1 sequence (A8XFG2 17-199): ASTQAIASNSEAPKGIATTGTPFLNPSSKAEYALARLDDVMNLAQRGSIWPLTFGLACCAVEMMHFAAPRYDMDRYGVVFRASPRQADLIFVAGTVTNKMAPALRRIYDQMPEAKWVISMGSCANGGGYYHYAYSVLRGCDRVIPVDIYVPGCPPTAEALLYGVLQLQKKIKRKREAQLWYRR
T1 sequence (Q8HEC4 1-291): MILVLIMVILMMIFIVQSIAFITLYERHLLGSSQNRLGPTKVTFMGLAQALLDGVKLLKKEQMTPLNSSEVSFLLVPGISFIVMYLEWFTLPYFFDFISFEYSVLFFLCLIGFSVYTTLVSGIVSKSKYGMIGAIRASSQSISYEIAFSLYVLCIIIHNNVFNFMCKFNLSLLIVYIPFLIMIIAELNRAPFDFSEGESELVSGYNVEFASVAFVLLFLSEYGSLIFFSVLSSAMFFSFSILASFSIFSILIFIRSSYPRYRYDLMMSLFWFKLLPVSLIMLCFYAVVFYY

The chains behind the UniProt entries cited, without tags or fusion partners. Where a name states a change or a piece, a line headed by the entry shows the natural chain unless it says otherwise. Residues count along the entry.
UniProt P24887: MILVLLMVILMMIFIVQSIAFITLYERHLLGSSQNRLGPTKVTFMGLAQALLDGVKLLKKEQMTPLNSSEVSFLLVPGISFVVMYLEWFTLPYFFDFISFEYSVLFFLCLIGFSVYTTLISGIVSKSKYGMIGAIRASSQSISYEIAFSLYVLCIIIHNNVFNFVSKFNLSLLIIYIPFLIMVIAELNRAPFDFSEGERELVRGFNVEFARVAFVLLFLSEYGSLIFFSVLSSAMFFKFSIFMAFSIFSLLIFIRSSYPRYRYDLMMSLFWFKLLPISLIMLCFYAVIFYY
UniProt P03887, whole entry: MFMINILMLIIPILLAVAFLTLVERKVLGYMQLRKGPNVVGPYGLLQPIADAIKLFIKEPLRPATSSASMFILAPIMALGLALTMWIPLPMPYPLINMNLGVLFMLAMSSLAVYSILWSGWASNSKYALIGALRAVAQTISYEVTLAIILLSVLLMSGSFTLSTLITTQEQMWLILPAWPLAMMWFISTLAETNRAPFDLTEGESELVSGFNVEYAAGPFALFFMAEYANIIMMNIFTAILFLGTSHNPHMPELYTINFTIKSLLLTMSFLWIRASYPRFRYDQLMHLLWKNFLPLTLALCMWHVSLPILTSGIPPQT
UniProt P17694, 34-463: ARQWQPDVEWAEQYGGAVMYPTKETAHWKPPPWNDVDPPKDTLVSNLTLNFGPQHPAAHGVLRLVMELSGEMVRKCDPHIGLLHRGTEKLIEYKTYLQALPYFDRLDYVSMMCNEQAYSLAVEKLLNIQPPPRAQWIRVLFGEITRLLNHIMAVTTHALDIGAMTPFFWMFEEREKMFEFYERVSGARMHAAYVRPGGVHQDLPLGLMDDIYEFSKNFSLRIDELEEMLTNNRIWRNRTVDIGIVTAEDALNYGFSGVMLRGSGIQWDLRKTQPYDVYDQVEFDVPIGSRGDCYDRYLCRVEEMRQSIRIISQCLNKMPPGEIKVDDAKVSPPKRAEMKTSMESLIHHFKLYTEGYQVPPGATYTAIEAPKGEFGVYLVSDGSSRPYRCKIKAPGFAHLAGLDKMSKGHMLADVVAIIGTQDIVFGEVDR
UniProt P42026, 38-216: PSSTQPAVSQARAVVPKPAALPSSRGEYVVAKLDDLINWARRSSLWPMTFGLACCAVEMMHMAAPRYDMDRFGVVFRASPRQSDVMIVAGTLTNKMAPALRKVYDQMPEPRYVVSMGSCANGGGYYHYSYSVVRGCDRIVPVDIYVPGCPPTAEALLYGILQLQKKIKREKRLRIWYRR
UniProt A4UAP3: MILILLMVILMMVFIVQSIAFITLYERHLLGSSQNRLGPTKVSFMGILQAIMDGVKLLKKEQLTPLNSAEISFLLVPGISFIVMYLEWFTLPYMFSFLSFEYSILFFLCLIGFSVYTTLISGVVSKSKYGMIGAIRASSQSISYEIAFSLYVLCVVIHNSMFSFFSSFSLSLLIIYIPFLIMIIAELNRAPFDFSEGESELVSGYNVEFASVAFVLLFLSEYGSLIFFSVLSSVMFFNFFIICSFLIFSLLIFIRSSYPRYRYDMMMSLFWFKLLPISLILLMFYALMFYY

P. pacificus complex I = P. pacificus complex I (Pristionchus pacificus, UniProt A0A454XZ18+A0A8R1Z3U8+A4UAP3); experiment: In vitro complex I activity assay, P. pacificus mitochondria; type: biochemical; conditions: single replicate
L1 wild-type C. elegans = conditions: […]; for KCN survival assay value relative to DMSO control, Mean: mean of replicates; for KCN survival assay value relative to DMSO control, individual replicate: single replicate

SMILES: Cc1ccccc1OCCCCn1cnc2ccccc21 [Compound 7732524]
- in vitro complex I activity relative to solvent control, individual replicate ([1]; dose 0.0001 µM): 139.221% and 123.764% and 79.935% and 92.468%
- in vitro complex I activity relative to solvent control, individual replicate ([1]; dose 0.0005 µM): 155.142% and 144.844% and 81.294% and 85.351%
- in vitro complex I activity relative to solvent control, individual replicate ([1]; dose 0.001 µM): 146.259% and 130.004% and 90.484% and 91.636%
- in vitro complex I activity relative to solvent control, individual replicate ([1]; dose 0.0025 µM): 142.023% and 123.020% and 76.998% and 83.273%
- in vitro complex I activity relative to solvent control, individual replicate ([1]; dose 0.005 µM): 93.953% and 95.021% and 73.083% and 86.286%
- in vitro complex I activity relative to solvent control, individual replicate ([1]; dose 0.013 µM): 121.592% and 104.688% and 83.850% and 71.585%
- in vitro complex I activity relative to solvent control, individual replicate ([1]; dose 0.025 µM): 107.346% and 94.375% and 68.842% and 69.039%
- in vitro complex I activity relative to solvent control, individual replicate ([1]; dose 0.063 µM): 64.371% and 60.903% and 51.636%
- in vitro complex I activity relative to solvent control, individual replicate ([1]; dose 0.125 µM): 41.869% and 55.628% and 39.325%
- in vitro complex I activity relative to solvent control, individual replicate ([1]; dose 0.313 µM): 25.930% and 34.638% and 19.481%
- in vitro complex I activity relative to solvent control, individual replicate ([1]; dose 0.625 µM): 6.702% and 13.127% and 8.554%
- in vitro complex I activity relative to solvent control, individual replicate ([1]; dose 1.5 µM): 3.568% and 5.741% and 1.820% and 0.0001%
- in vitro complex I activity relative to solvent control, individual replicate ([1]; dose 3 µM): 0.000% and 2.579%
- in vitro complex I activity relative to solvent control, individual replicate ([1]; dose 7.5 µM): 3.059% and 0.000%
- in vitro complex I activity relative to solvent control, individual replicate ([1]; dose 15 µM): 0.000%
- in vitro complex I activity relative to solvent control, individual replicate ([1]; dose 37.5 µM): 0.892% and 0.000% and 2.592%
- in vitro complex I activity relative to solvent control, individual replicate ([1]; dose 75 µM): 3.462% and 1.513% and 20.794% and 0.000%
- B. taurus: C. elegans IC50 Fold Change (Complex I IC50 ~Fold Change) [2]: 2.21
- Complex I IC50 ~Fold Change [2]: 2.2
- IC50 Fold change [2]: 2.21
- in vitro complex I activity relative to solvent control (C. briggsae complex I; 0.0001 µM): 93.046% and 92.454%
- in vitro complex I activity relative to solvent control (C. briggsae complex I; 0.0005 µM): 86.610% and 95.593%
- in vitro complex I activity relative to solvent control (C. briggsae complex I; 0.001 µM): 87.673% and 90.044%
- in vitro complex I activity relative to solvent control (C. briggsae complex I; 0.0025 µM): 90.438% and 89.438%
- in vitro complex I activity relative to solvent control (C. briggsae complex I; 0.005 µM): 102.088% and 95.670%
- in vitro complex I activity relative to solvent control (C. briggsae complex I; 0.013 µM): 83.151% and 84.893%
- in vitro complex I activity relative to solvent control (C. briggsae complex I; 0.025 µM): 66.968% and 78.817%
- in vitro complex I activity relative to solvent control (C. briggsae complex I; 0.063 µM): 36.504% and 49.778%
- in vitro complex I activity relative to solvent control (C. briggsae complex I; 0.125 µM): 23.208% and 15.095% and 39.850%
- in vitro complex I activity relative to solvent control (C. briggsae complex I; 0.313 µM): 5.446% and 0.170% and 18.193%
- in vitro complex I activity relative to solvent control (C. briggsae complex I; 0.625 µM): 0.000% and 2.155% and 0.301%
- in vitro complex I activity relative to solvent control (C. briggsae complex I; 1.5 µM): 0.000% and 3.856%
- in vitro complex I activity relative to solvent control (C. briggsae complex I; 3 µM): 0.000% and 1.040% and 4.090%
- in vitro complex I activity relative to solvent control (C. briggsae complex I; 7.5 µM): 0.735% and 1.191% and 2.237%
- in vitro complex I activity relative to solvent control (C. briggsae complex I; 15 µM): 0.186% and 4.026% and 0.000%
- in vitro complex I activity relative to solvent control (C. briggsae complex I; 37.5 µM): 0.000% and 0.822% and 2.337%
- in vitro complex I activity relative to solvent control (C. briggsae complex I; 75 µM): 0.000% and 1.074%
- in vitro complex I activity relative to solvent control (P. pacificus complex I; 0.0001 µM): 76.630% and 92.164%
- in vitro complex I activity relative to solvent control (P. pacificus complex I; 0.0005 µM): 100.064% and 87.294% and 78.341%
- in vitro complex I activity relative to solvent control (P. pacificus complex I; 0.001 µM): 99.189% and 85.252% and 42.987%
- in vitro complex I activity relative to solvent control (P. pacificus complex I; 0.0025 µM): 98.462% and 65.488% and 128.163%
- in vitro complex I activity relative to solvent control (P. pacificus complex I; 0.005 µM): 105.904% and 74.342% and 120.349%
- in vitro complex I activity relative to solvent control (P. pacificus complex I; 0.013 µM): 86.610% and 65.249% and 105.458%
- in vitro complex I activity relative to solvent control (P. pacificus complex I; 0.025 µM): 68.907% and 60.445% and 91.713%
- in vitro complex I activity relative to solvent control (P. pacificus complex I; 0.063 µM): 48.640% and 29.074% and 62.055%
- in vitro complex I activity relative to solvent control (P. pacificus complex I; 0.125 µM): 15.764% and 13.994% and 44.232%
- in vitro complex I activity relative to solvent control (P. pacificus complex I; 0.313 µM): 12.069% and 4.401% and 8.231%
- in vitro complex I activity relative to solvent control (P. pacificus complex I; 0.625 µM): 17.485% and 8.622% and 8.276%
- in vitro complex I activity relative to solvent control (P. pacificus complex I; 1.5 µM): 15.665% and 7.003% and 6.302%
- in vitro complex I activity relative to solvent control (P. pacificus complex I; 3 µM): 17.516% and 6.831% and 5.367%
- in vitro complex I activity relative to solvent control (P. pacificus complex I; 7.5 µM): 28.020% and 8.306% and 0.416%
- in vitro complex I activity relative to solvent control (P. pacificus complex I; 15 µM): 14.842% and 17.819%
- in vitro complex I activity relative to solvent control (P. pacificus complex I; 37.5 µM): 22.555% and 15.242% and 10.392%
- in vitro complex I activity relative to solvent control (P. pacificus complex I; 75 µM): 13.041% and 7.929% and 1.766%
- Relative Motility (L1 wild-type C. elegans; 50 μM, worm motility 3 hours after the removal of KCN (endpoint), relative to DMSO controls, single biological replicate): 0.052
- KCN survival assay value relative to DMSO control, Mean (L1 wild-type C. elegans; dose 0.2 µM): 1.002
- KCN survival assay value relative to DMSO control, Mean (L1 wild-type C. elegans; dose 0.4 µM): 0.963
- KCN survival assay value relative to DMSO control, Mean (L1 wild-type C. elegans; dose 0.8 µM): 0.941
- KCN survival assay value relative to DMSO control, Mean (L1 wild-type C. elegans; dose 1.6 µM): 0.887
- KCN survival assay value relative to DMSO control, Mean (L1 wild-type C. elegans; dose 3.1 µM): 0.828
- KCN survival assay value relative to DMSO control, Mean (L1 wild-type C. elegans; dose 6.3 µM): 0.509
- KCN survival assay value relative to DMSO control, Mean (L1 wild-type C. elegans; dose 12.5 µM): 0.007
- KCN survival assay value relative to DMSO control, Mean (L1 wild-type C. elegans; dose 25 µM): 0.000
- KCN survival assay value relative to DMSO control, individual replicate (L1 wild-type C. elegans; dose 25 µM): 0.000
- KCN survival assay value relative to DMSO control, Mean (L1 wild-type C. elegans; dose 50 µM): 0.000
- KCN survival assay value relative to DMSO control, individual replicate (L1 wild-type C. elegans; dose 50 µM): 0.000
- KCN survival assay value relative to DMSO control, Mean (L1 wild-type C. elegans; dose 100 µM): 0.000
- KCN survival assay value relative to DMSO control, individual replicate (L1 wild-type C. elegans; dose 100 µM): 0.000
